# scFv variants of Ab-14 (light chain) against a SARS-CoV-2 spike peptide

Target: peptide PDVDLGDISGINAS, taken from heptad repeat 2 (HR2) of SARS-CoV-2 spike.

Parent: Ab-14, a human scFv built as VH, the linker GGGGSGGGGSGGGGS, VL. Only the CDRs of the light chain vary.
VH: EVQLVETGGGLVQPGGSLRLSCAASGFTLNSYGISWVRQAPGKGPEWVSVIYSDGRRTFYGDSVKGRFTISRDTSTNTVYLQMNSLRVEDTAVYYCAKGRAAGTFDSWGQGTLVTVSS
VL: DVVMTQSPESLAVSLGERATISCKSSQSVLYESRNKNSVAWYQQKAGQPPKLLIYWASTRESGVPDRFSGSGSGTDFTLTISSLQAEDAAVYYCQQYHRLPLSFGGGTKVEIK

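The parent was found by panning a naive human phage display library on the peptide. This is the validation round: designs drawn from the data on random variants, tested in the same kind of assay. Several design methods are mixed in this list. Affinity was read by AlphaSeq, a pooled yeast mating assay with surface-displayed partners. After mating in shaken culture at 30 °C for 16 h, diploids were selected and their barcode pairs sequenced. The ratio of observed to expected reads was calibrated, replicate by replicate, on BCL2-family standards whose Kd was known from biolayer interferometry. The assay was run in six technical replicates.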

Each variant's VL is given in full.
Variants here have at most six changes.
Values are apparent Kd, the geometric mean of the replicates that gave a signal; lower means stronger binding.
"no signal" marks a missing value. The strain was present, yet no cells mated with the target were sequenced in any replicate, which points to weak or no binding.
Entries are sorted by rising average, undetected variants last.

- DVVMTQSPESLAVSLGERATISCKLEQSVLYESRNKNSVAWYQQKAGQPPKLLIYNASTREMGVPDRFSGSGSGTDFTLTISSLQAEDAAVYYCQQYHRLPLSFGGGTKVEIK = 290 pM (6 of 6 replicates)
- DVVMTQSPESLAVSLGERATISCKFSQLQLYESRNKNSVAWYQQKAGQPPKLLIYNASTRESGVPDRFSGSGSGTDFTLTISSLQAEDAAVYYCQQYRRLPLSFGGGTKVEIK = 370 pM (6 of 6 replicates)
- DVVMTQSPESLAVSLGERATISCKLSQSMLYESRNKNSVAWYQQKAGQPPKLLIYNASQRESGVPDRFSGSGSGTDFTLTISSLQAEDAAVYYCQQYHRLPLSFGGGTKVEIK = 400 pM (6 of 6 replicates)
- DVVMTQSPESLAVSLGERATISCKLSYSVLYESRNKNSVAWYQQKAGQPPKLLIYGASTRESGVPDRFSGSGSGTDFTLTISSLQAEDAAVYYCQQYHRLPLSFGGGTKVEIK = 410 pM (6 of 6 replicates)
- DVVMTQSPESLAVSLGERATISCKQSQEVLQESRNKNSVAWYQQKAGQPPKLLIYDASTRESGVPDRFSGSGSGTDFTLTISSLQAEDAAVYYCQQYHRLPLSFGGGTKVEIK = 650 pM (6 of 6 replicates)
- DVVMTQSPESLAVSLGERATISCKSLQSVVYEFRNKNSVAWYQQKAGQPPKLLIYHASTREDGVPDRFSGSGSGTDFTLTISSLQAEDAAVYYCQQYHRLPLSFGGGTKVEIK = 710 pM (6 of 6 replicates)
- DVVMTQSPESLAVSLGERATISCKQSQSVGGESRNKNSVAWYQQKAGQPPKLLIYDASTRESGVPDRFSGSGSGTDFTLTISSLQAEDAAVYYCQQYHRLPLSFGGGTKVEIK = 720 pM (6 of 6 replicates)
- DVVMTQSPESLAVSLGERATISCKISQSVLYEQRAQNSVAWYQQKAGQPPKLLIYEASTRESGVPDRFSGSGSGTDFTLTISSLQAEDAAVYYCQQYHRLPLSFGGGTKVEIK = 810 pM (6 of 6 replicates)
- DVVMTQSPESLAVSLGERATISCKLQQSELYESRNKNSVAWYQQKAGQPPKLLIYEASTRSSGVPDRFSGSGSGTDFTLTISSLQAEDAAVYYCQQYHRLPLSFGGGTKVEIK = 840 pM (6 of 6 replicates)
- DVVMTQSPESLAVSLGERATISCKLQQQTLYESRNKNSVAWYQQKAGQPPKLLIYQASTREEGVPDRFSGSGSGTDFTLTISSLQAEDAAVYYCQQYHRLPLSFGGGTKVEIK = 1.3 nM (6 of 6 replicates)
- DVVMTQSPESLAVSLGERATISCKSSQSVLYESRNQNSVAWYQQKAGQPPKLLIYQASTRESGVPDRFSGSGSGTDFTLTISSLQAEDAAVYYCQQYHRLPLSFGGGTKVEIK = 1.4 nM (6 of 6 replicates)
- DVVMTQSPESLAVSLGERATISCKLSQSELYESRNKNSVAWYQQKAGQPPKLLIYSASTRLSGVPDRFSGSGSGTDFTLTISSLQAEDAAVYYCQQYHRLPLSFGGGTKVEIK = 1.5 nM (6 of 6 replicates)
- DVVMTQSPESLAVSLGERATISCKSSQSVLTQSRNKNSVAWYQQKAGQPPKLLIYDASTRESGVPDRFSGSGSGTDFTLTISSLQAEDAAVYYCQQYHRLPLSFGGGTKVEIK = 1.9 nM (6 of 6 replicates)
- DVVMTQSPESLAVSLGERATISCKSLQSVLYESRDKNSVAWYQQKAGQPPKLLIYDASTREDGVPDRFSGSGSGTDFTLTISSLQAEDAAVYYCQQYHRLPLSFGGGTKVEIK = 2.5 nM (6 of 6 replicates)
- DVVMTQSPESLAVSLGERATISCKLQQSVLYESRNKNSVAWYQQKAGQPPKLLIYHASTRMSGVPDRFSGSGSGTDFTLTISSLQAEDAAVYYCQQYHRLPLSFGGGTKVEIK = 3.9 nM (6 of 6 replicates)
- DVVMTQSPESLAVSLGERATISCKMLQSWLYESRNKNSVAWYQQKAGQPPKLLIYHASTREQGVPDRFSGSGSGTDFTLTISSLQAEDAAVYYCQQYHRLPLSFGGGTKVEIK = 4.3 nM (6 of 6 replicates)
- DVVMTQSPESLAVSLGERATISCKLSQSVLYESRLKNSVAWYQQKAGQPPKLLIYGASTRESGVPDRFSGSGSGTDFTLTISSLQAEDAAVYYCQQYHRLPLSFGGGTKVEIK = 4.3 nM (6 of 6 replicates)
- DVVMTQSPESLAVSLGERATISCKSEQSVLYESRHKNSVAWYQQKAGQPPKLLIYDASTRLSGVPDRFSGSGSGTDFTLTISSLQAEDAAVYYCQQYHDLPLSFGGGTKVEIK = 15 nM (5 of 6 replicates)
- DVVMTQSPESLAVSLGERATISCKLYNSTLYESRQKNSVAWYQQKAGQPPKLLIYWASTRESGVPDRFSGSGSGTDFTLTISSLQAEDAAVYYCQQYHRLPLSFGGGTKVEIK = 65 nM (6 of 6 replicates)
- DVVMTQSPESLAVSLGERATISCKSSQSVLYESRNKNSVAWYQQKAGQPPKLLIYWASTRESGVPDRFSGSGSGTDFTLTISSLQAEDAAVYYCGQYARLPIIFGGGTKVEIK = no signal (0 of 6 replicates)
- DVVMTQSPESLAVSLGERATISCKSSQSVEYESRNKNSVAWYQQKAGQPPKLLIYWASTRESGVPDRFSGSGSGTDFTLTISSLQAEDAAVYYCQQYHRLPPSFGGGTKVEIK = no signal (0 of 6 replicates)

Background: pairings of all light chain designs with three empty control strains gave a value in 4% of cases (median 430 nM, 5th percentile 38 nM). Values in that range, when seen in few replicates, are hard to tell from nonspecific mating.
The authors' rule: three or more of the six replicates give a measured affinity, fewer mean a poor binder.
A sequence measured in both rounds can read differently, since the two assays cover different ranges.
The parent sequence was in this pool as ten entries: three were never detected, three once, and four in most replicates, with averages from 2.2 nM to 240 nM.

Reference: Li et al. 2023, doi:10.1038/s41467-023-39022-2. File: FLAb, binding data.